# Test results reported in patent US7655670B2 (Janssen Pharmaceutica N.V., priority 2005, dated 2010).
# Amino acid sequences for entries named in this document (tags omitted). A change or cut given only in a name is not applied to a line headed by its entry.
# UniProt P41146: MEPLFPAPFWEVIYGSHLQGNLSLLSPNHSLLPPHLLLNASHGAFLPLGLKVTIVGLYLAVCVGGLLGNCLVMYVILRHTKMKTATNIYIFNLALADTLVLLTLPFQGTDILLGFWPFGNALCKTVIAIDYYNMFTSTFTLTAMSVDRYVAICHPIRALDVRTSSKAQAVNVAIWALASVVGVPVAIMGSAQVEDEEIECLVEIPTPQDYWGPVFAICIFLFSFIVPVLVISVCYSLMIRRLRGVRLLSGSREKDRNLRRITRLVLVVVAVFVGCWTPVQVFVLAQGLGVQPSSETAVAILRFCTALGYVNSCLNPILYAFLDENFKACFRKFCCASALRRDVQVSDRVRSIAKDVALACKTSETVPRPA
# Molecular target: human nociceptin receptor (ORL-1) (Homo sapiens, UniProt P41146)
# Assay: nociceptin receptor (ORL-1) binding assay, 125I-Tyr14-nociceptin displacement
# Settings: HEK293 cell membranes, 0.5 nM 125I-Tyr14-nociceptin; calculated mean where tested more than once
row,Structure (SMILES),IC50 [µM]
1,CCN1CC2(CCN(CC3CCCCCCC3)CC2)c2ccc(OC)cc21 [Compound 63],3.37
2,O=C(O)CN1C(=O)C2(CCN(CC3CCCCCCC3)CC2)c2ccccc21 [Compound 41],> 10
3,O=C1N(CC2CCCCC2)c2ccccc2C12CCN(C1Cc3cccc4cccc1c34)CC2 (centres unmarked) [Compound 4],> 10
4,CN1CCC2(CC1)C(=O)N(CCOC1CCCCO1)c1ccccc12 (centres unmarked),> 10
5,CC(=O)N[C@@H](CSCC(O)CN1C(=O)C2(CCN(CC3CCCCCCC3)CC2)c2ccccc21)C(=O)O (some centres unmarked) [Compound 16],0.11
6,COC(=O)CN1C(=O)C2(CCN(Cc3ccc(-c4ccccc4)cc3)CC2)c2ccccc21,> 10
7,COC(=O)CN1C(=O)C2(CCN(C3Cc4cccc5cccc3c45)CC2)c2ccccc21 (centres unmarked) [Compound 30],0.35
8,COC(=O)CN1C(=O)C2(CCN(Cc3ccccc3-c3ccsc3)CC2)c2ccccc21,> 10
9,CCCCCCC(CCCC)CN1CCC2(CC1)C(=O)N(CC(=O)OC)c1ccccc12 (centres unmarked),> 10
10,CCCN1C(=O)C2(CCN(CC3CCCCCCC3)CC2)c2cc(C(C)C)ccc21 [Compound 17],> 10
11,COC(=O)CN1C(=O)C2(CCN(CCc3ccccc3)CC2)c2ccccc21,> 10
